This assay deals with κ opiate receptor (Cavia porcellus, UniProt P41144). The assay is described as follows: κ receptor binding assay, guinea-pig brain membrane, 3H-U69593 displacement. The settings on record: read-out: Receptor Binding Assay [Ki in μM] Kappa Receptor.

The chains behind the UniProt entries cited, without tags or fusion partners. Where a name states a change or a piece, a line headed by the entry shows the natural chain unless it says otherwise.
UniProt P41144: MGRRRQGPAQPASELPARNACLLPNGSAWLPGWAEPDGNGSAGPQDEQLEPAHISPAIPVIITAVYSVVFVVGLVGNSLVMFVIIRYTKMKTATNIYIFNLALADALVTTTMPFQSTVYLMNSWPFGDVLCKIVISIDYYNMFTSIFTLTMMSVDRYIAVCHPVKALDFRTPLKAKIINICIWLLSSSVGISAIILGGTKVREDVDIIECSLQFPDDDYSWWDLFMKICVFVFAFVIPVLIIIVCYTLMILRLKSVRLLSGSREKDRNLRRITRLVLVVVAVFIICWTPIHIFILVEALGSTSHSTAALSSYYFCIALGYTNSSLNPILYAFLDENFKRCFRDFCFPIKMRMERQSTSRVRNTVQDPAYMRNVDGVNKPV

The term Ki denotes a measure of affinity in units of concentration, obtained from inhibition or displacement. Consider Leu-Enkephalin [reference compound], for which the inhibition constant Ki stood at 0.00214 µM.

For the origin of these results see patent publication US6979436B2, “Opioid metallopeptide compositions and methods” (Palatin Technologies, Inc., priority 1999, dated 2005).
